# Laboratory results reported in patent publication US20230052517A1, “ELECTROCHEMICAL SENSING METHODS AND APPARATUS FOR DETERMINING DRUG UPTAKE AND RETENTION IN CELLS” (priority 2020, published 2023).
# Tested on: Pseudomonas bacteria (PAO1 and PA262)
# Settings: strains drop-casted individually at macro-electrodes
# Procedure: After 25 min of incubation, the bacteria suspension is centrifuged, cells are resuspended in PBS and drop-casted onto a 3-mm glassy carbon macroelectrode (see FIG. 1D). Other macroelectrode materials, such as gold, platinum, etc. could be employed in the same way. The electrode is then placed in a KCl solution and DPV is performed at a potential rage of zero to 1.0V. This potential range would be adjusted depending on the drug of interest.
# When the electrode is placed in the KCl solution, various time intervals were applied before driving the oxidation reaction at the electrode.
smiles,measurement,value
O=C(O)c1cn(C2CC2)c2cc(N3CCNCC3)c(F)cc2c1=O [ciprofloxacin],"export current, resistant PA262 versus susceptible PAO1",the resistant strain appears to result in a higher current than the susceptible strain
